We go through nine compounds from patent publication US10995099B2, “Compounds and their uses as ACC inhibitors” (NANJING RUIJIE PHARMATECH CO., LTD., priority 2017, dated 2021).

By UniProt entry, the sequences of proteins in these tests, tags left out.
UniProt O00763, whole entry: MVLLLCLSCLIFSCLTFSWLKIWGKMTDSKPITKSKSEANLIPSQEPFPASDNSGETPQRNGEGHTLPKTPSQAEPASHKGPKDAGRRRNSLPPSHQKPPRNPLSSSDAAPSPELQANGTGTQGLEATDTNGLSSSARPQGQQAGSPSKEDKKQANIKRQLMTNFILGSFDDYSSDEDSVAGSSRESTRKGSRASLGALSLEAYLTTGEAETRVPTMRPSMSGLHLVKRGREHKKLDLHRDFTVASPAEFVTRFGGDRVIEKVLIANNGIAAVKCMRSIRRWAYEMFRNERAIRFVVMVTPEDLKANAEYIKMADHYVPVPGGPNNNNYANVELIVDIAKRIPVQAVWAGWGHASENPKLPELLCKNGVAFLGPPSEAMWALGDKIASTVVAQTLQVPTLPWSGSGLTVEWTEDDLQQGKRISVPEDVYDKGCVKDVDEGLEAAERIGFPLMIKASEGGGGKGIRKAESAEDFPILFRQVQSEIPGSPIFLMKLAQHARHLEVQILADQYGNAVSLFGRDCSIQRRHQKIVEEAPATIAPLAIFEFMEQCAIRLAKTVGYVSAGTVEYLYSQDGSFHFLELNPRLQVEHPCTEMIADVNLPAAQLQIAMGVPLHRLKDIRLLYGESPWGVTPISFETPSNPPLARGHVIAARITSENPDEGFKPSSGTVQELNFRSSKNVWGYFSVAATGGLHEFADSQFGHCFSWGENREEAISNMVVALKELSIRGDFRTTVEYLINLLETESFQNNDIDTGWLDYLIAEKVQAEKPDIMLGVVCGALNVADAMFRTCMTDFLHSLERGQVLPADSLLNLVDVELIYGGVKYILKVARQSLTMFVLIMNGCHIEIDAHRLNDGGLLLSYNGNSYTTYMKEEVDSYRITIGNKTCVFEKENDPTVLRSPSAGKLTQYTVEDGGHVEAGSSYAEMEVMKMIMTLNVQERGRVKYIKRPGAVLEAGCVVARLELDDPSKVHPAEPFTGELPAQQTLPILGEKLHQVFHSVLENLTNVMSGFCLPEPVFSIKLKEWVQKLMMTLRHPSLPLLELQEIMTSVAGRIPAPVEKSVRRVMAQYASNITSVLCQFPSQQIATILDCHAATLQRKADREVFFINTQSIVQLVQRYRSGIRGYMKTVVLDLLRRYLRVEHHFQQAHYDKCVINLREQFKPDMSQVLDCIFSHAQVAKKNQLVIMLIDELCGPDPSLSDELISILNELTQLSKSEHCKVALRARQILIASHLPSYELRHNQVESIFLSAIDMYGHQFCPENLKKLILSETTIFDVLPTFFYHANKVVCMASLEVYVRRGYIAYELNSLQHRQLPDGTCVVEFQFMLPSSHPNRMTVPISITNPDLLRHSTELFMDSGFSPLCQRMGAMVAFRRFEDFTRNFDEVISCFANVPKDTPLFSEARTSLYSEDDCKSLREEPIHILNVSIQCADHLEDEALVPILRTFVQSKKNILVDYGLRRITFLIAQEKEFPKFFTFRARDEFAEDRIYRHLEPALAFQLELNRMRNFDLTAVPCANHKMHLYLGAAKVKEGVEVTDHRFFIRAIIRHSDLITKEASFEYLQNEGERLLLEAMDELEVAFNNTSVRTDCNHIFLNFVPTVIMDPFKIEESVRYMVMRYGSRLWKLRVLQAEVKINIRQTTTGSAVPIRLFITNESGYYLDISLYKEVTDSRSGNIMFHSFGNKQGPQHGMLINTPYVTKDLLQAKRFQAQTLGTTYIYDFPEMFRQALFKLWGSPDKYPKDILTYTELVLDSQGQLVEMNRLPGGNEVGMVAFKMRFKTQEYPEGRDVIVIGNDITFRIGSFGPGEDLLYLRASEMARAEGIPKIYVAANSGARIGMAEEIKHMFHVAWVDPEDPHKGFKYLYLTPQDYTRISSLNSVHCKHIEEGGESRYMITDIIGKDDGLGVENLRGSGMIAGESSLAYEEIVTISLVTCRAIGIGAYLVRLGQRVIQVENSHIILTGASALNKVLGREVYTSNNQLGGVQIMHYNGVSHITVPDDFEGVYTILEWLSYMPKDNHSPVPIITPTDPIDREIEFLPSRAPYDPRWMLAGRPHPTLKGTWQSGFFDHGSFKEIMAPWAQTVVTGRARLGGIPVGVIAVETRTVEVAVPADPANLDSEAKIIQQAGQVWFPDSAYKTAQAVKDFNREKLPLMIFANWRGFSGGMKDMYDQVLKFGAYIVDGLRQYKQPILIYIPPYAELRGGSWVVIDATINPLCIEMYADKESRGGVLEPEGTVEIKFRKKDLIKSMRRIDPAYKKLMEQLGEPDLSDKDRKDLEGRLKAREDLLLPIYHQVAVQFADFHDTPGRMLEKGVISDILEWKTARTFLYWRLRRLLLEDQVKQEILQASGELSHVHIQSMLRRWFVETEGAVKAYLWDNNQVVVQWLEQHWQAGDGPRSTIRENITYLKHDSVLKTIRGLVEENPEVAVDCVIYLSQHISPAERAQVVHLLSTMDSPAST

For one assay, the system named is HepG2. In words: EC50 in HepG2. The format is cell-based.
In another assay the target is ACC2 (Homo sapiens (Human), UniProt O00763). Put plainly: In vitro ACC inhibition assay (ADP-Glo), ACC2. Type of assay: biochemical. Conditions: read-out: IC50 (μM) ND630/RJ-cmps(%); ND630 versus RJ compounds; isoform not given. For orientation: ADP-Glo turns the ADP formed in a reaction into a luminescent signal.
Setting [1] is: read-out: EC50 (μM) ND630/RJ-cmps(%), ND630 versus RJ compounds.
Where [2] appears, read: read-out: EC50 (μM) HepG2, HepG2.

Read-outs that look alike come from different tables or passages of the source. Bounds are passed on as bounds.

In the case of `COc1ccccc1C(Cn1c(=O)n(C2(CC(=O)N3CCN(C)CC3)CC2)c(=O)c2c(C)c(Br)sc21)OC1CCOCC1` (centres unmarked), the EC50 in the assay on HepG2 (setting [1]) lay in the range of 0.1 to 1 µM. The IC50 at ACC2 was 0.003 to 0.005 µM.
As to `CNC(=O)c1sc2c(c1C)c(=O)n(C1(C(=O)O)CC1)c(=O)n2C[C@H](OC1CCOCC1)c1ccccc1OC`, in the assay with HepG2 (setting [1]), the EC50 lay in the range of 0.1 to 1 µM. In addition, the IC50 at ACC2 is 0.005 to 0.01 µM.
Regarding `COc1ccccc1[C@H](Cn1c(=O)n(C2(C(=O)O)CC2)c(=O)c2c(C)csc21)OC1CCOCC1` [Example 17], the IC50 on ACC2 lay within 0.005 to 0.01 µM.
Take `COc1ccccc1C(Cn1c(=O)n(C2(C(=O)O)CC2)c(=O)c2c(C)c(C#N)sc21)OC1CCOCC1` (centres unmarked): the EC50 in the assay with HepG2 (setting [2]) was more than 1 µM; with HepG2 (setting [1]), 0.01 to 0.1 µM. The IC50 on ACC2 was in the range of 0.005 to 0.01 µM.
Regarding `COc1ccccc1C(Cn1c(=O)n(C2(CC(N)=O)CC2)c(=O)c2c(C)c(-c3ncco3)sc21)OC1CCOCC1` (centres unmarked), the results for the EC50 in the assay with HepG2 (setting [2]) and in the assay with HepG2 (setting [1]) were less than 0.01 µM and more than 1 µM, respectively. The IC50 on ACC2 lay within 0.005 to 0.01 µM.
In the case of `COc1ccccc1C(Cn1c(=O)n(C2(C(=O)C(=O)O)CC2)c(=O)c2c(C)c(Br)sc21)OC1CCOCC1` (centres unmarked), the EC50 in the assay on HepG2 (setting [2]) was in the range of 0.1 to 1 µM; in the assay on HepG2 (setting [1]), 0.01 to 0.1 µM. Besides, the IC50 on ACC2 lay in the range of 0.005 to 0.01 µM.
Take `COc1ccccc1[C@H](Cn1c(=O)n(C2(C(=O)O)CC2)c(=O)c2c(C)c(C(=O)N(C)C)sc21)OC1CCOCC1`: the EC50 in the assay on HepG2 (setting [1]) fell in the range of 0.1 to 1 µM. At ACC2, the IC50 lay in the range of 0.005 to 0.01 µM.
`CNC(=O)CC1(n2c(=O)c3c(C)c(-c4ncco4)sc3n(CC(OC3CCOCC3)c3ccccc3OC)c2=O)CC1` (centres unmarked): the EC50 in the assay on HepG2 (setting [2]) is 0.01 to 0.1 µM; in the assay on HepG2 (setting [1]) it was more than 1 µM. On ACC2, the IC50 is 0.005 to 0.01 µM.
With `COc1ccccc1C(Cn1c(=O)n(C2(C(=O)O)CC2)c(=O)c2c(C)c(C(F)(F)F)sc21)OC1CCOCC1` (centres unmarked), on ACC2, the IC50 was in the range of 0.005 to 0.01 µM.
